From ChEMBL document CHEMBL6103640, “Discovery of 5-Phenylthiazol-2-amine Derivatives as Novel PI4KIIIβ Inhibitors with Efficacious Antitumor Activity by Inhibiting the PI3K/AKT Axis” (J Med Chem, 2025)

Test system: NCI-H446
Assay: Inhibition of PI3K/AKT signaling pathway in human NCI-H446 cells assessed as decrease in p-AKT level at 10 uM incubated for 48 hrs by Western blot analysis
Type: cell-based

SMILES	inhibition
CC(=O)/N=c1/[nH]c(C)c(-c2ccc(Cl)c(S(=O)(=O)NCCO)c2)s1	Active
Cc1nc(NC(=O)N2CCC[C@H]2C(N)=O)sc1-c1ccnc(C(C)(C)C(F)(F)F)c1 [ALPELISIB]	Active

Calls of active or inactive are those of the source. The rule behind the calls is not given here.
